A selection: hits, their analogues and other compounds. The true share with any hit is near 2.8%.
esBAF inh: inhibitors of esBAF chromatin remodeling in mouse ES cells | Bmi1-luciferase knock-in reporter, 24 h; 100% = twice the neutral-well signal | reporter increase, % at 12.5 µM | 350,000 tested, 2% active | AID 602393; in the data active = activation above about 40%;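 note: 0% = median of the plate's neutral control wells and 100% = double that signal; a rise in the Bmi1 reporter signal indicates esBAF inhibition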
E-sel inducer: induces E-selectin expression in human endothelial cells | P16581 | HUVEC E-selectin immunofluorescence imaging; normalized: neutral wells 0, TNF-alpha wells 100 | activation, % at 7.58 µM | 260,000 tested, 0.37% active | AID 686992;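 active = mean E-selectin-positive cell signal at least 10% of the positive control, reached in at least 60% of replicates, without over 20% cell loss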
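material = human umbilical vein endothelial cells (HUVEC), E-selectin induction | quantity = 3,000 cells/well | medium = EGM-2 growth medium on 0.1% gelatin-coated wells | technique = immunofluorescence imaging | read-out basis = % PE-positive cells | control set = TNF-alpha positive control, DMSO neutral control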
C2C12 statin: suppression of simvastatin myotoxicity | C2C12 myotubes + simvastatin, ATP luminescence, 48 h; scaled: DMSO 0, geranylgeraniol control 100 | 330,000 tested, 0.78% active | rescue of ATP level, % at 7.49 µM;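 active = mean ATP rescue above about 67%, or every replicate alone reaching that limit, limit read from the data, passing the limit was not always enough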;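 note: myotubes were challenged with 10 µM simvastatin during compound exposure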
UUG fidelity: modulators of yeast start codon fidelity, primary screen, whole organism, S. cerevisiae, single point, plate reader; S. cerevisiae UUG-firefly luciferase reporter, luminescence/redox ratio; activity score, % at 18.7 µM; 0.13% of 350,000 active; AID 602363, 2012;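 active = replicate mean at a twofold rise or more, about +100% in these data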;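 also: firefly luciferase made from a UUG start codon reports start codon fidelity; reporter light over untreated wells divided by growth signal over untreated wells; some hits fall short of that in this replicate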
PglD inh: PglD (C. jejuni) enzyme inhibition. purified PglD enzyme, DTNB colorimetric CoA detection. inhibition, % at 12.5 µM. 360,000 tested, 0.098% active. AID 602405; in the data active = inhibition above about 16%, passing the limit was not always enough
PGC1a acetyl inh: PGC1a acetylation modulation, inhibitor mode; 350,000 tested, 0.17% active; inhibition, % at 15.6 µM; U2OS PGC1a acetylation, AlphaScreen anti-acetyl-lysine; with virally co-expressed GCN5 acetyltransferase;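 active = every replicate shows inhibition of at least 40%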;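 note: 0% = neutral control wells and 100% = positive control wells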
* = called active by the depositor; x = no result given.

SMILES | esBAF inh | E-sel inducer | C2C12 statin | UUG fidelity | PglD inh | PGC1a acetyl inh
Cc1noc(C)c1S(=O)(=O)N(C)C[C@@H]1OCCCC[C@@H](C)Oc2ccc(NS(=O)(=O)c3cccs3)cc2C(=O)N([C@H](C)CO)C[C@H]1C | 3 | 0 | x | 21 | -2 | -17
Cc1noc(C)c1NC(=O)N(C)C[C@@H]1OCCCC[C@H](C)Oc2ccc(NC(=O)Cc3ccccc3)cc2C(=O)N([C@H](C)CO)C[C@@H]1C | 0 | 0 | x | -5 | -2 | 1
O=C(c1ccc2nc(N3CCOCC3)sc2c1)N1CCCC1 | 13 | 0 | x | -11 | 0 | -6
COc1ccc(N2CCN(C(=O)c3ccc4nc(N5CCCCC5)sc4c3)CC2)cc1 | 62* | 0 | 33 | -14 | 5 | 1
O=C(Nc1ccccc1F)c1ccc(-c2cccc([N+](=O)[O-])c2)o1 | 27 | 0 | -3 | -12 | -5 | x
O=C(Nc1nccs1)c1ccc(-c2cccc([N+](=O)[O-])c2)o1 | 67* | x | -33 | -14 | -8 | 6
C=CCNC(=O)c1ccc(-c2cccc([N+](=O)[O-])c2)o1 | 46* | x | x | 1 | -2 | x
C[C@H]1CN([C@@H](C)CO)C(=O)c2cc(NS(=O)(=O)c3ccc(Cl)cc3)ccc2O[C@@H]1CN(C)C(=O)Nc1cccc2ccccc12 | -3 | 0 | 20 | -10 | 0 | -5
N/C(=N\OC(=O)c1cccs1)c1cccc([N+](=O)[O-])c1 | 75* | x | 62 | 0 | -3 | -13
Cc1cccc(C(=O)O/N=C(\N)c2cccc([N+](=O)[O-])c2)c1 | x | x | x | -16 | -6 | 9
CCSc1ccc(/C(N)=N/OC(=O)c2cccs2)cn1 | 57* | x | -7 | -10 | -1 | 3
Cc1ccc(S(=O)(=O)N(C)C[C@H]2Oc3c(NS(=O)(=O)c4c(C)noc4C)cccc3C(=O)N([C@H](C)CO)C[C@H]2C)cc1 | 1 | 0 | -35 | 4 | 1 | -6
Cc1cc(-c2nc(-c3ccc(C(C)(C)C)cc3)no2)no1 | 62* | x | -14 | -17 | 2 | 5
COc1ccc(S(=O)(=O)N(C)C[C@@H]2Oc3ccc(NC(=O)c4ccncc4)cc3C(=O)N([C@H](C)CO)C[C@H]2C)cc1 | 3 | 28* | 0 | 9 | 0 | -1
COc1ccc(S(=O)(=O)N(C)C[C@@H]2Oc3ccc(NC(=O)c4ccncc4)cc3C(=O)N([C@@H](C)CO)C[C@@H]2C)cc1 | 3 | 37* | -3 | -4 | 1 | -1
COc1ccc(S(=O)(=O)N(C)C[C@H]2Oc3ccc(NC(=O)c4ccncc4)cc3C(=O)N([C@@H](C)CO)C[C@H]2C)cc1 | 1 | 22 | 15 | 8 | -4 | 2
CCCCc1cn(C[C@H](Cc2ccccc2)NC(=O)N[C@H](CO)CCc2oc(C(C)=O)c(C(=O)OC)c2C(=O)OC)nn1 | x | x | x | -15 | -3 | -1
CC(NC(=O)c1ccc(N(C)C)cc1)C(c1cccs1)N1CCN(C)CC1 (configuration not stated) | 43* | x | 6 | -14 | 4 | -3
CC(NC(=O)c1ccc(C(C)(C)C)cc1)C(c1cccs1)N1CCOCC1 (configuration not stated) | 9 | x | -6 | -8 | 2 | x
CCCNC(=O)N(C)C[C@@H]1Oc2ncc(-c3ccc(OC)cc3)cc2C(=O)N([C@@H](C)CO)C[C@H]1C | 5 | 0 | 1 | -1 | -2 | -4
OC1(c2cccc(C(F)(F)F)c2)CCN(c2ccc(-c3ccccc3)nn2)CC1 | 67* | x | -50 | -21 | 2 | 6
CO[C@@H]1CN(C)C(=O)c2cc(NS(=O)(=O)c3cn(C)cn3)ccc2OC[C@@H](C)N(C)C[C@@H]1C | 3 | 0 | -2 | x | 1 | 4
O=C(Cc1ccc(Cl)cc1)NC1CCCCCC1 | 54* | x | 7 | 11 | -1 | 14
O=C(COc1ccc(Cl)cc1[N+](=O)[O-])NC1CCCCC1 | 101* | 0 | -5 | x | x | x
COc1cc(CNn2cnnc2)ccc1OCC(=O)NC1CCCCC1 | -12 | x | 7 | -17 | 3 | -1

One compound at a time (already shown):
N/C(=N\OC(=O)c1cccs1)c1cccc([N+](=O)[O-])c1 reads esBAF inh = 75*; E-sel inducer = x; C2C12 statin = 62; UUG fidelity = 0; PglD inh = -3; PGC1a acetyl inh = -13
CCCNC(=O)N(C)C[C@@H]1Oc2ncc(-c3ccc(OC)cc3)cc2C(=O)N([C@@H](C)CO)C[C@H]1C reads esBAF inh = 5; E-sel inducer = 0; C2C12 statin = 1; UUG fidelity = -1; PglD inh = -2; PGC1a acetyl inh = -4

The listing picks up with the two entries that preceded the break.
SMILES | esBAF inh | E-sel inducer | C2C12 statin | UUG fidelity | PglD inh | PGC1a acetyl inh
O=C(COc1ccc(Cl)cc1[N+](=O)[O-])NC1CCCCC1 | 101* | 0 | -5 | x | x | x
COc1cc(CNn2cnnc2)ccc1OCC(=O)NC1CCCCC1 | -12 | x | 7 | -17 | 3 | -1
O=C(COc1ccc(Cl)cc1[N+](=O)[O-])N1CCCCCC1 | -1 | 2 | 4 | -1 | -2 | -18
O=C(COc1ccc(Cl)cc1Br)NC1CC1 | 38 | x | -2 | -21 | -3 | 2
COc1cc(C)ccc1OCC(=O)NC1CCCCCC1 | 69* | x | -15 | -2 | 0 | 5
CC(=O)c1cc(Cl)ccc1OCC(=O)NC1CCCC1 | 52* | 0 | 8 | x | x | x
C[C@H]1CN([C@@H](C)CO)C(=O)c2c(c3ccccc3n2C)-c2ccccc2CO[C@@H]1CN(C)C(=O)Nc1ccccc1C(F)(F)F | x | 1 | x | x | x | x
CO[C@H]1CN(C)C(=O)c2ccc(NC(=O)C3CCOCC3)cc2OC[C@@H](C)NC[C@@H]1C | -4 | 0 | 4 | x | 4 | -1
CC(=O)N(C)C[C@H]1Oc2cc(C#CC(C)C)ccc2S(=O)(=O)N([C@H](C)CO)C[C@H]1C | -2 | 0 | -9 | 16 | -1 | -5
Cc1c(OCc2ccccc2)c(=O)ccn1Cc1ccccc1 | 56* | x | 2 | x | x | -6
O=c1ccn(Cc2ccccc2)c2ccccc12 | 2 | 0 | 22 | -15 | -4 | x
COc1ccc2[nH]c(O)c(N=NC(=O)c3ccc(NS(=O)(=O)c4cccs4)cc3)c2c1 | 44* | 2 | -38 | -4 | 0 | -5
Cc1ccc2[nH]c(O)c(N=NC(=O)c3ccc(NS(=O)(=O)c4cccs4)cc3)c2c1 | 0 | 0 | 1 | x | x | -9
Cc1ccc(C2CC2c2n[nH]c(=S)n2-c2ccc(C)cc2)cc1 (configuration not stated) | 2 | x | 118* | -18 | -5 | 12
Cc1csc(SCc2nnc(-c3ccc(Cl)cc3)o2)n1 | 60* | x | -1 | x | x | -26
COc1ccccc1NC(=O)c1cc2ccc(O)cc2o/c1=N\O | 26 | x | 69* | -16 | -8 | 5
COc1ccc(C(=O)N/C(=C/c2cccs2)C(=O)NC(C)(C)C)cc1OC | -1 | x | 15 | -5 | -1 | 67*
COc1cc(/C=N/Nc2snc(SC)c2C#N)ccc1O | 60* | x | -50 | 5 | -1 | -12
C(=N\Nc1nc2ccccc2[nH]1)/c1cccs1 | 67* | x | -12 | -7 | -3 | -9
COc1cc(/C=N/Nc2nc(C)cc(C)n2)ccc1O | -1 | 6 | -5 | -29 | -4 | -5
COc1cccc(/C=N/Nc2nc3ccccc3[nH]2)c1O | 62* | x | 2 | -33 | -4 | 14
COc1cc(/C=N/Nc2nc3ccccc3[nH]2)ccc1O | 47* | x | 0 | -26 | 0 | -1
C[C@H](CO)N1C[C@H](C)[C@H](CN(C)C(=O)Nc2ccc(C(F)(F)F)cc2)Oc2ccc(NC(=O)CCCCCC(=O)Nc3ccccc3N)cc2C1=O | x | 0 | x | x | x | -16

Screening results (PubChem BioAssay)
